This is a selection; strong and weak results do not stand in their true shares. Some tests of the compounds listed are not included; inactive here does not mean inactive elsewhere. Calls of active or inactive are those of the source.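 Rule for the calls: active = percent activation above the mean of all tested compounds plus 3 SD (cut at about 19% in these data); inactive = the rest.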

The target in this assay is cAMP-dependent protein kinase type I-alpha regulatory subunit (Bos taurus) + cAMP-dependent protein kinase catalytic subunit beta (Mus musculus) (UniProt P00514+P68181). The assay can be described thus: activators of PKA-R1A holoenzyme, primary screen, biochemical, fluorescence polarization, Cy5-IP20, bovine R1A, mouse PKAc (AID 504707).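 Note: higher means more PKAc released from R1A so a rise in polarization.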 The note with it: PKA-R1A dissociation, at 11.4 µM, hits give high values, scaled: DMSO 0%, 113 µM cGMP 100%. Background: Fluorescence polarisation rises when a labelled molecule tumbles more slowly, as on binding a larger partner.
For the molecule `Cc1ccccc1C(=O)NCC1(N2CCCCC2)CCCCC1`, the activation was inactive: 0.65%.
`CN(C)C1CCCC1OC(=O)C(O)(c1ccccc1)c1ccccc1` (stereo unspecified): the activation was inactive: -0.37%.
For `CN(C)c1ccc(C(=O)NCC2(N(C)C)CCCCC2)cc1`, the activation is inactive: 7.95%.
For `C=CCN1CCN(CCOC(=O)C(O)(c2ccccc2)c2ccccc2)CC1` the value was inactive: -4.22%; for `O=C(NCC1(N2CCCCC2)CCCCC1)c1cc(F)c(F)cc1Cl`, inactive: 2.7%.
For `COc1ccc(C(=O)NCC2(N(C)C)CCCCC2)cc1` the value was inactive: 11.6%; for `Cc1cc(C(=O)NCC2(N3CCCCC3)CCCCC2)ccc1[N+](=O)[O-]`, inactive: 0.16%.
As for `CCN1CCCC(OC(=O)C2(O)c3ccccc3C=Cc3ccccc32)C1` (stereo unspecified), the activation is inactive: -2.66%.
Regarding `O=C(NCC1(N2CCCCC2)CCCCC1)c1cccc(Br)c1`, the activation was inactive: 2.91%.
On to `O=C(NCC1(N2CCCCC2)CCCCC1)c1cc([N+](=O)[O-])ccc1Cl`, for which the activation is inactive: 8.15%.
For `CN1[C@@H]2CC[C@H]1CC(OC(=O)C(O)(c1ccccc1)c1ccccc1)C2` (stereo partly specified) the value was inactive: 1.11%.
For `CCN(CC)CC(C)C(C)OC(=O)C(O)(c1ccccc1)c1ccccc1` (stereo unspecified), the activation was inactive: 5.32%.
`COc1cc(SC)ccc1C(=O)NCC1(N(C)C)CCCCC1`: the activation is inactive: -4.94%.
Take `CC(C)N1C(=O)CC2(CCN(CCOC(=O)C(O)(c3ccccc3)c3ccccc3)CC2)C1=O`: the activation is inactive: 1.97%.
With `Cc1ccc(C(=O)NCC2(N3CCCCC3)CCCCC2)cc1`, the activation is inactive: 2.09%.
With `O=C(OC1CN2CCC1CC2)C(CO)(c1ccccc1)c1ccccc1` (stereo unspecified), the activation was inactive: -0.53%.
For `C=C(C)C#CC(O)(C(=O)OC1CCN(C)CC1)c1ccccc1` (stereo unspecified) the value was inactive: 6.06%; for `COc1ccc(Br)c(C(=O)NCC2(N3CCCCC3)CCCCC2)c1`, inactive: -6.37%; for `CC(C)Oc1ccc(C(=O)NCC2(N(C)C)CCCCC2)cc1`, inactive: -3.9%.
Turning to `O=C(OCCN1CCCC1)C(O)(c1ccccc1)c1ccccc1`, the activation was inactive: -7.38%.
Take `CN(C)c1cccc(C(=O)NCC2(N(C)C)CCCCC2)c1`: the activation was inactive: -1.37%.
For `CN(C)C1(CNC(=O)c2ccc(Br)cc2)CCCCC1`, the activation is inactive: -6.42%.
As for `COc1cc(C(=O)NCC2(N(C)C)CCCCC2)c([N+](=O)[O-])cc1OC`, the figure is inactive: -7.38%.
In the case of `COc1cccc(C(=O)NCC2(N3CCCCC3)CCCCC2)c1`, the activation was inactive: 4.23%.
Turning to `COc1ccc(Cl)cc1C(=O)NCC1(N(C)C)CCCCC1`, the activation is inactive: -1.32%.
Regarding `O=C(NCC1(N2CCCCC2)CCCCC1)c1cccc(Cl)c1`, the activation was inactive: -4.43%.

Values taken from PubChem BioAssay AID504707 (The Scripps Research Institute Molecular Screening Center, 2011).
